# Yeast mating assay 2: variants of the scFv Ab-91

Data: MIT Lincoln Laboratory AlphaSeq set, Engelhart et al. 2022, doi:10.1038/s41597-022-01779-4, as distributed in FLAb.

Antigen: PDVDLGDISGINAS, a 14-residue peptide of the SARS-CoV-2 spike HR2 region.

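Phage display of a naive human antibody library on the peptide gave the parent. AAYL51 was designed without a model: most single CDR substitutions and a random sample of double and triple ones. AlphaSeq pools MATa yeast showing the antibodies with MATalpha yeast showing the peptide. Binding brings cells together so that they mate, and sequencing counts the barcode pairs among the diploids. Each replicate has its own calibration line, from reference interactions of the BCL2 family. Each pool was mated in three replicate cultures.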

The variants keep the light chain, the linker and the frameworks of Ab-91 (scFv order VL, a 15-residue (Gly4Ser)3 linker, VH).
VL: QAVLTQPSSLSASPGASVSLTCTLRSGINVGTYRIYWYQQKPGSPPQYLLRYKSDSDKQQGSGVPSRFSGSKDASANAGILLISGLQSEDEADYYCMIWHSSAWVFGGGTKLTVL
VH: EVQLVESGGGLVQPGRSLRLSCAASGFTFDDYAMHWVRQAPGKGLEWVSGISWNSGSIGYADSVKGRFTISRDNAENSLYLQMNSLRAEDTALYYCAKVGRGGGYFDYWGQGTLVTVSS

The parent's heavy chain CDRs are GFTFDDYAMH, GISWNSGSIGYADSVK, VGRGGGYFDY; each variant's own CDRs replace them letter for letter.
Kd is apparent (estimated from mating counts) and averaged on the log scale over replicates with a signal. Smaller is tighter.
"not detected" means that the variant was in the library but no mating with the target was seen in any replicate; the authors take this as a sign of poor binding, and no number exists.
As a blank, each scFv also met three strains without target: over library AAYL51, 21% of these pairings were detected, typically at 34 µM and seldom below 1.8 µM. The control count says in how many pairings with the empty strains this scFv gave a signal.

| CDR-H1 | CDR-H2 | CDR-H3 | apparent Kd | replicates with signal | signal with controls |
|---|---|---|---|---|---|
| GNTFDDYAMH | GGSWNSGSIGYYDSVK | VGRGGGYFDY | 52 µM | 2 of 3 | 3 of 9 |
| GFTFDDYAMH | GIMWNSGSIGYADSVK | VGIAGGYFDY | not detected | 0 of 3 | 1 of 9 |
| GFTFDDYAMH | GISWNSGSIGMADSVK | VGRGGGYFDD | 20 nM | 3 of 3 | 0 of 9 |
| GFTYDDYAMH | GISWNSGSIRYADSYK | VGRGGGYFDY | not detected | 0 of 3 | 0 of 9 |
| GFTFDDYAMH | GYSWNSGSIGYADSVK | EGRGCGYFDY | 550 µM | 3 of 3 | 3 of 9 |
| GGTFDDYAME | GISWNSGDIGYADSVK | VGRGGGYFDY | 1.7 µM | 1 of 3 | 1 of 9 |
| GFTFDDYAMH | GISWNSGVIGYIDSVK | RGRGGGYFDY | not detected | 0 of 3 | 0 of 9 |
| GFGFDDDAMH | GISWNSGSIGYADSVK | VGRGGGYFQY | 14 µM | 1 of 3 | 1 of 9 |
| GFTYDDYWMH | GISWMSGSIGYADSVK | VGRGGGYFDY | 29 µM | 1 of 3 | 0 of 9 |
| GFSFDDYRMH | GISWNSGSIGYIDSVK | VGRGGGYFDY | not detected | 0 of 3 | 1 of 9 |
| GFTFDDYAMH | GISINSSSIGYADSVK | VGRGGGYFDY | 1.0 mM | 2 of 3 | 4 of 9 |
| YFTFDDYAMH | GISCNSGSIGYADSVK | VGRGGGYFDN | 1.2 mM | 1 of 3 | 3 of 9 |
| GFTFDDYAMH | GIGWNSGSIGYADSVK | VGRPMGYFDY | 260 µM | 1 of 3 | 3 of 9 |
| GFWEDDYAMH | GISWNSGSIGYADWVK | VGRGGGYFDY | not detected | 0 of 3 | 1 of 9 |
| GFTFFDYAMH | GISWNPGSIGVADSVK | VGRGGGYFDY | 43 µM | 2 of 3 | 6 of 9 |
| GFTSDDYAMH | GISWNSGSWGYADSVK | VGRGGGYFDY | 30 µM | 3 of 3 | 8 of 9 |
| GFTFNDYAMH | GISWGSGSIGYADSVK | VFRGGGYFDY | 3.7 µM | 1 of 3 | 1 of 9 |
| GFTFDDYAMH | GISWNSESIGYAYSVK | VGTGGGYFDY | 10 µM | 2 of 3 | 3 of 9 |
| GFTFDDYAMH | GISWNSGSIGKADSVK | VGSGGGYKDY | 6.5 µM | 1 of 3 | 1 of 9 |
| GFTFDDYAMH | GISWNSGSIGYHDWVE | VGRGGGYFDY | 600 nM | 3 of 3 | 0 of 9 |
| GRTFDDYAMH | GISWASGSIGYADSVK | VGRGGGYFDT | not detected | 0 of 3 | 3 of 9 |
| GFWFDDYTMH | GISWNSGSIGYADQVK | VGRGGGYFDY | 20 µM | 2 of 3 | 2 of 9 |
| GFTFDDVAMH | GASWNSGSIGYADSVK | VGRGGHYFDY | 42 µM | 1 of 3 | 0 of 9 |
| GFTFDDYADH | PISWNSGSIGYADSVK | VGAGGGYFDY | 290 µM | 2 of 3 | 5 of 9 |
| GFTFDDYAMH | MISWNSGSIGYADSVK | VGRGGGYFDA | not detected | 0 of 3 | 0 of 9 |
| LFYFDDYAMH | GISWNSGSIGYADSVK | VGEGGGYFDY | not detected | 0 of 3 | 1 of 9 |
| GSTFDDYAMH | GIQWNSGSIGYADSVK | VGRGGGYFDY | not detected | 0 of 3 | 0 of 9 |
| GFTFDDYAMH | GISQNSGSIGYADSDN | VGRGGGYFDY | 250 µM | 1 of 3 | 0 of 9 |
| GFTFDHYAMH | GISWNSKSIGYADSVK | VGEGGGYFDY | 130 nM | 3 of 3 | 3 of 9 |
| GFTFDAYAMH | FISWNSGSIGCADSVK | VGRGGGYFDY | not detected | 0 of 3 | 0 of 9 |
| GFTQDDYAMH | GISWNSGSIMYADSVK | VGRGLGYFDY | 33 µM | 2 of 3 | 3 of 9 |
| GFTGDDYAMH | GQSWNSGHIGYADSVK | VGRGGGYFDY | 5.0 µM | 1 of 3 | 3 of 9 |
| GFTFDDYAMH | QIAWNSGSIGYADSVK | VGRDGGYFDY | not detected | 0 of 3 | 0 of 9 |
| GFTFDDYAPL | GISWNSGSIGYADSVK | VGRGGGYFDY | not detected | 0 of 3 | 0 of 9 |
| GFTFDDYAMH | GIEWNWGSIGYADSVK | VGRGGGYHDY | not detected | 0 of 3 | 1 of 9 |
| GFTFDSYAMH | GISWNSGSICYADFVK | VGRGGGYFDY | 29 µM | 1 of 3 | 5 of 9 |
| GFTFDDYFMH | GISWNSGSIVYADSVK | VGRGGTYFDY | 12 µM | 1 of 3 | 4 of 9 |
| GFTFDLYAMH | GISWNSGSIGYADSVK | VGRGGEHFDY | 64 nM | 3 of 3 | 6 of 9 |
| GPTFDDDAMH | GISWNSGSIGYADSVE | VGRGGGYFDY | not detected | 0 of 3 | 0 of 9 |
| GFTFDDYAMH | RISWNSGSIGYADSVK | VNRGGGHFDY | 4.1 µM | 1 of 3 | 0 of 9 |
| GFTFDDEAMH | GISWNSGVIGYADSVK | VGEGGGYFDY | not detected | 0 of 3 | 0 of 9 |
| GFTWDDYAMH | GISWISGSIGYADSVK | VGRGGGYFPY | 87 µM | 2 of 3 | 7 of 9 |
| GFTFDDYAMH | GISWNSGSIGGADSVK | VGCGGGYFGY | not detected | 0 of 3 | 2 of 9 |
| GFTFDGYAMH | GISWNSYSIGYADSVK | VGRGGGYFDY | 12 µM | 1 of 3 | 0 of 9 |
| GTTFDDYAMH | GYSWNSGSIGYADSWK | VGRGGGYFDY | not detected | 0 of 3 | 0 of 9 |
| GFTFDDYKMH | GISWNSGSIGYSDSVK | VGRGGGYFDY | not detected | 0 of 3 | 2 of 9 |
| HFTFDDYAMH | GISPGSGSIGYADSVK | VGRGGGYFDY | not detected | 0 of 3 | 0 of 9 |
| GFTFDDYAMH | GISWNSGSIMIADSVK | VPRGGGYFDY | 1.1 mM | 1 of 3 | 2 of 9 |
| GFTFDDYAMH | GISWNNGSIGYADSVK | MGAGGGYFDY | not detected | 0 of 3 | 1 of 9 |

Excerpt, the final 4 entries:

| CDR-H1 | CDR-H2 | CDR-H3 | apparent Kd | replicates with signal | signal with controls |
|---|---|---|---|---|---|
| GFTFDDYKMH | GISWNSGSIGYSDSVK | VGRGGGYFDY | not detected | 0 of 3 | 2 of 9 |
| HFTFDDYAMH | GISPGSGSIGYADSVK | VGRGGGYFDY | not detected | 0 of 3 | 0 of 9 |
| GFTFDDYAMH | GISWNSGSIMIADSVK | VPRGGGYFDY | 1.1 mM | 1 of 3 | 2 of 9 |
| GFTFDDYAMH | GISWNNGSIGYADSVK | MGAGGGYFDY | not detected | 0 of 3 | 1 of 9 |